Measurements: ChEMBL document CHEMBL1128397, “Novel 2,4-diamino-5-substituted-pyrrolo[2,3-d]pyrimidines as classical and nonclassical antifolate inhibitors of dihydrofolate reductases” (J Med Chem, 1995)

Target: T1, Dihydrofolate reductase (Pneumocystis carinii, UniProt P16184)
T1 sequence (P16184 whole entry): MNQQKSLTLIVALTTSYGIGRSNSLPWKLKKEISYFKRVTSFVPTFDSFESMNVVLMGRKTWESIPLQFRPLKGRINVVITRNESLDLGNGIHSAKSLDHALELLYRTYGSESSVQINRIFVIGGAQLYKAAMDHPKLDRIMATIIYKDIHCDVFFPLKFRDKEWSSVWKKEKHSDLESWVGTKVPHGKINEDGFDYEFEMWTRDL

COc1ccc(OC)c(NCc2c[nH]c3nc(N)nc(N)c23)c1
IC50: 45.7 µM
